ChEMBL document CHEMBL6115028, “An Amazing 30-Year Journey around the DABO Family: A Medicinal Chemistry Lesson on a Versatile Class of Non-nucleoside HIV-1 Reverse Transcriptase Inhibitors” (J Med Chem, 2025)

Assay: Inhibition of wild type HIV-1 LAI reverse transcriptase

SMILES: Cc1cc(C#N)cc(C)c1Oc1nc(Nc2ccc(C#N)cc2)nc(N)c1Br [ETRAVIRINE]
- IC50: 1.4 nM
